Activity calls are given as the source filed them. The rule behind the calls is not given here.
Molecular target: 11-beta-hydroxysteroid dehydrogenase 1 (Homo sapiens, UniProt P28845)
Settings: HEK293, 2 uM

Protein sequences, listed by entry. Tags and fused reporters are not part of them. Lines headed by an entry give the natural chain unless they say otherwise; changes in a name come on top.
UniProt P28845: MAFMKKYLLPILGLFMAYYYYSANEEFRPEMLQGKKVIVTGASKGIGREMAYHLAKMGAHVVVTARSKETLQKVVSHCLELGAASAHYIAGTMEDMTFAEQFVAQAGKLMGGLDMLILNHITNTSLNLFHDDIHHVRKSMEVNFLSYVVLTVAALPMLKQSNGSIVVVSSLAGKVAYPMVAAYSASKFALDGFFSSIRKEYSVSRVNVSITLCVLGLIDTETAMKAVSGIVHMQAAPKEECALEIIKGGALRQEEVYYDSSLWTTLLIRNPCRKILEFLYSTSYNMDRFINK

SMILES: COC(=O)[C@]12CC[C@@H](C)[C@H](C)[C@H]1C1=CC[C@@H]3[C@@]4(C)C[C@@H](O)[C@@H](O)C(C)(C)[C@@H]4CC[C@@]3(C)[C@]1(C)CC2
- inhibition: Active

Source: ChEMBL document CHEMBL1156911 (Bioorg Med Chem, 2010)
